Results as given in ChEMBL document CHEMBL4715797, “Structure-Activity Relationships of [des-Arg]Dynorphin A Analogues at the κ Opioid Receptor” (J Med Chem, 2016).

By UniProt entry, the sequences of proteins in these tests, tags left out.
UniProt P35372, whole entry: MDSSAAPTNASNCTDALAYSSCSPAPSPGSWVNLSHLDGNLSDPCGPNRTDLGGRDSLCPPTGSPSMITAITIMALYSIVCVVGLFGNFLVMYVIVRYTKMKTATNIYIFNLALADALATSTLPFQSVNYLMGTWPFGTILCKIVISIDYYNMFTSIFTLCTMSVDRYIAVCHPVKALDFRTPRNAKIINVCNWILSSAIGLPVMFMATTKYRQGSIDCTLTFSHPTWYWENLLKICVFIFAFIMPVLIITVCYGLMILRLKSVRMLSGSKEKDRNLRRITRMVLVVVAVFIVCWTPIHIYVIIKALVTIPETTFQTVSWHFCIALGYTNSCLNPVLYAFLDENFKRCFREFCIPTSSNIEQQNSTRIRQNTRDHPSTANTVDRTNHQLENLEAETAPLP

Target: Mu-type opioid receptor (Homo sapiens, UniProt P35372)
Assay: Displacement of [3H]diprenorphine from human MOR expressed in mouse NG108-15 cell membranes incubated for 2 hrs by liquid scintillation counting based radioligand competition assay

CC[C@H](C)[C@H](NC(=O)[C@H](CCCNC(=N)N)NC(=O)[C@H](CCCNC(=N)N)NC(=O)[C@H](CC(C)C)NC(=O)[C@H](Cc1ccccc1)NC(=O)CNC(=O)CNC(=O)[C@@H](N)Cc1ccc(O)cc1)C(=O)N[C@@H](CCCNC(=N)N)C(=O)N1CCC[C@H]1C(=O)N[C@@H](CCCCN)C(=O)N[C@@H](CC(C)C)C(=O)N[C@@H](CCCCN)C(=O)O [ANALOG OF DYNORPHIN A]
Ki: 8 nM
